In US20260151516A1, “NEW PET TRACER FOR IMAGING OF THE FUNCTIONAL HEPATIC RESERVE” (Medizinische Universität Innsbruck, priority 2022, published 2026):
pIC50: −log10 of the molar value. Where “and” joins values, the source holds several entries; their conditions need not be identical. Identical values can stand only once. Marks after values point to notes of the source that are not given here. Blank lines part the entries; values can stand above or below the compound they belong to.

Assays:
[1] = Biodistribution studies incl. blocking experiments; assay type: in vivo; details: healthy BALB/c mice
Procedure: For biodistribution studies 6 week old female BALB/c mice (n=3) were injected with 0.1 nmol (100 μL, approx. 1 MBq) of labelled compound via the lateral tail vein and sacrificed after 10, 30, or 60 min by cervical dislocation. The mice were dissected, blood and organs (spleen, pancreas, stomach, intestine, liver, kidney, heart, lung, muscle, and bone) were weighed, and their activity measured in a γ-counter. For blocking experiments, mice were co-injected with 100 μL of a 277 mM Galactose/PBS solution. In case of [^68Ga]Ga-TRAP-GalNAc a 277 mM N-Acetylgalactose solution was used.

[2] = Partition coefficient (log D), n-Octanol/PBS; assay type: physicochemical
Procedure: The vials were vortexed for 5 min at 1,500 rpm and then centrifuged for 5 min at 20,000 rcf (Eppendorf Centrifuge 5424). Aliquots of 100 μL were taken out of each phase and the amount of activity was quantified in a γ-counter (Perkin Elmer 2480 Wizard2 3″; Waltham, Massachusetts, USA).

[3] = Ligand stability in human blood serum (radio-HPLC); assay type: in vitro ADME; details: 37° C.
Procedure: Ligand stability in human blood serum (n=2) and PBS (n=1) was determined for different time points (2 min, 30 min, 60 min, 120 min). Therefore, approx. 5 MBq of radioligand was added to 1 mL of fresh human serum or PBS and incubated at 37° C. At each given time point 100 μL of the mixture were transferred to a 1.5 mL Eppendorf tube containing 100 μL of acetonitrile. The vial was vortexed and centrifuged for 2 min at 14,000 rpm before 100 μL of the supernatant were diluted with 200 μL of water and injected into analytical radio-HPLC. The PBS solution was directly injected into the radio-HPLC. Ligand stability was determined by integrating the areas of the signals in the radio chromatogram in relation to the signal of the intact ligand.

Recombinant human ASGR1 = target: T1, Recombinant human ASGR1 (Homo sapiens, UniProt P07306); test: In vitro binding study, isolated receptor-based assay against ^125I-Asialoorosomucoid; details: recombinant human ASGR1, ^125I-Asialoorosomucoid 50 nM, n = 3; method used [^natGa]Ga-NODAGA-TriGalactan
T1 construct: His tag (inferred from immobilisation on Ni-coated plates)
T1 sequence (P07306 1-291): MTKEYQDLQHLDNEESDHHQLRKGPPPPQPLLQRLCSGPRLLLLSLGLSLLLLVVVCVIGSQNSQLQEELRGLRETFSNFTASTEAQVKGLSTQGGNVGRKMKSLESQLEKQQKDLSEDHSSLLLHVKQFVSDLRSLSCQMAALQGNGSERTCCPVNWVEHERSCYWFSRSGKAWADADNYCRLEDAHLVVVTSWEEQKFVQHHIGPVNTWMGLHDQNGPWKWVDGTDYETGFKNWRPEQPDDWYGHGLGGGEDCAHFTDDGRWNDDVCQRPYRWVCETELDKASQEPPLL
Procedure: Inhibitory constant (IC50) values were determined in triplicates using an isolated receptor-based assay as described in literature (Eggink L L et al. J Immunother Cancer 2018; 6:28). Recombinant human ASGR1 was seeded out into Ni-coated 96 well plates (Pierce, Thermo Fisher) in PBS at a concentration of 2 μg/mL for at least 2 h at room temperature under mild agitation (200 1/min). Unbound receptor was removed by washing the wells twice with binding buffer (25 mM Tris×HCl, 150 mM NaCl, 0.05% TWEEN 20, pH=7.4). Next 140 μL of binding buffer as well as 20 μL of a 19 mM CaCl2-solution were added to the wells followed by addition of either 20 μL of PBS (control) or 20 μL of [^natGa]Ga-NODAGA-TriGalactan in PBS. Final ligand concentrations were ranging from 10^−5-10^−11 M. Lastly 20 μL of ^125I-Asialoorosomucoid (50 nM, 2.4 kBq per well) were added and the plate was incubated for 1 hour at room temperature under mild agitation (200 rpm). Supernatants were removed and the wells washed twice with 200 μL of PBS before receptor bound activity was released by addition of 200 μL of hot (60° C.) 1 M NaOH. Wells were incubated with NaOH for 10 min. Lysates were removed and the wells washed again twice with 200 μL of hot NaOH. The activity content in the lysates was quantified in a γ-counter and the values plotted in excel. […]

Compound: O=C(CCP(=O)([O-])CN1CCN(CP(=O)([O-])CCC(=O)NCc2cn([C@@H]3O[C@H](CO)[C@H](O)[C@H](O)[C@H]3O)nn2)CCN(CP(=O)([O-])CCC(=O)NCc2cn([C@@H]3O[C@H](CO)[C@H](O)[C@H](O)[C@H]3O)nn2)CC1)NCc1cn([C@@H]2O[C@H](CO)[C@H](O)[C@H](O)[C@H]2O)nn1.[68Ga+3] [[^68Ga]Ga-Galacto-TRAP]
Biodistribution Muscle ([1]; 30 min p.i.): 1.42 ± 0.21 % ID/g

Compound: O=C(CCP(=O)([O-])CN1CCN(CP(=O)([O-])CCC(=O)NCc2cn(CCOCCOCCO[C@@H]3O[C@H](CO)[C@H](O)[C@H](O)[C@H]3O)nn2)CCN(CP(=O)([O-])CCC(=O)NCc2cn(CCOCCOCCO[C@@H]3O[C@H](CO)[C@H](O)[C@H](O)[C@H]3O)nn2)CC1)NCc1cn(CCOCCOCCO[C@@H]2O[C@H](CO)[C@H](O)[C@H](O)[C@H]2O)nn1.[68Ga+3] [[^68Ga]Ga-TRAP-Galactan]
Liver-to-organ ratio Stomach ([1]; 30 min p.i.): 31.8 ± 7.8

Compound: O=C(CCP(=O)([O-])CN1CCN(CP(=O)([O-])CCC(=O)NCc2cn(CCOCCOCCO[C@@H]3O[C@H](CO)[C@@H](O)[C@H](O)[C@H]3O)nn2)CCN(CP(=O)([O-])CCC(=O)NCc2cn(CCOCCOCCO[C@@H]3O[C@H](CO)[C@@H](O)[C@H](O)[C@H]3O)nn2)CC1)NCc1cn(CCOCCOCCO[C@@H]2O[C@H](CO)[C@@H](O)[C@H](O)[C@H]2O)nn1.[68Ga+3] [[^68Ga]Ga-TRAP-Gluco, reference compound]
Biodistribution Heart ([1]; 10 min p.i.): 1.54 ± 0.11 % ID/g

Biodistribution Heart ([1]; 10 min p.i.): 1.18 ± 0.08 % ID/g
Biodistribution Stomach ([1]; 10 min p.i.): 1.42 ± 0.23 % ID/g
Compound: O=C(O)CN1CCN(CC(=O)O)CCN([C@H](CCC(=O)NCCCC(=O)NC(COCc2cn(CCOCCOCCO[C@@H]3O[C@H](CO)[C@H](O)[C@H](O)[C@H]3O)nn2)(COCc2cn(CCOCCOCCO[C@@H]3O[C@H](CO)[C@H](O)[C@H](O)[C@H]3O)nn2)COCc2cn(CCOCCOCCO[C@@H]3O[C@H](CO)[C@H](O)[C@H](O)[C@H]3O)nn2)C(=O)O)CC1 [[^68Ga]Ga-NODAGA-TriGalactan, metal not drawn]

Compound: [^99mTc]Tc-diethylenetriamine-pentaacetic acid galactosyl human serum albumin [[^99mTc]Tc-GSA, reference compound]
logD [2]: −1.88±0.02
Serum stability (% of intact ligand) ([3]; 2 min): 82 ^[x] %
Serum stability (% of intact ligand) ([3]; 30 min): 76 ^[x] %
Serum stability (% of intact ligand) ([3]; 60 min): 70 ^[x] %
Serum stability (% of intact ligand) ([3]; 120 min): 65 ^[x] %
pIC50 (Recombinant human ASGR1): 7.14
Biodistribution Blood ([1]; 10 min p.i.): 3.13 ± 0.15 % ID/g
Biodistribution Femur ([1]; 10 min p.i.): 1.54 ± 0.18 % ID/g
Biodistribution Heart ([1]; 10 min p.i.): 1.47 ± 0.07 % ID/g
Biodistribution Intestine ([1]; 10 min p.i.): 1.10 ± 0.05 % ID/g
Biodistribution Kidneys ([1]; 10 min p.i.): 7.35 ± 0.51 % ID/g
Biodistribution Liver ([1]; 10 min p.i.): 58.1±6.7 % ID/g and 58.1 ± 6.68 % ID/g
Biodistribution Lung ([1]; 10 min p.i.): 2.04 ± 0.11 % ID/g
Biodistribution Muscle ([1]; 10 min p.i.): 0.60 ± 0.04 % ID/g
Biodistribution Pancreas ([1]; 10 min p.i.): 0.64 ± 0.02 % ID/g
Biodistribution Spleen ([1]; 10 min p.i.): 1.37 ± 0.16 % ID/g
Biodistribution Stomach ([1]; 10 min p.i.): 0.91 ± 0.01 % ID/g
Biodistribution Blood ([1]; 30 min p.i.): 2.76 ± 0.57 % ID/g
Biodistribution Femur ([1]; 30 min p.i.): 3.64 ± 1.98 % ID/g
Biodistribution Heart ([1]; 30 min p.i.): 1.08 ± 0.16 % ID/g
Biodistribution Intestine ([1]; 30 min p.i.): 6.41 ± 1.05 % ID/g
Biodistribution Kidneys ([1]; 30 min p.i.): 10.5 ± 2.00 % ID/g
Biodistribution Liver ([1]; 30 min p.i.): 51.3 ± 2.78 % ID/g
Biodistribution Lung ([1]; 30 min p.i.): 1.64 ± 0.20 % ID/g
Biodistribution Muscle ([1]; 30 min p.i.): 0.45 ± 0.06 % ID/g
Biodistribution Pancreas ([1]; 30 min p.i.): 0.48 ± 0.07 % ID/g
Biodistribution Spleen ([1]; 30 min p.i.): 1.42 ± 0.39 % ID/g
Biodistribution Stomach ([1]; 30 min p.i.): 1.61 ± 0.20 % ID/g
Biodistribution Blood ([1]; 60 min p.i.): 1.98 ± 0.10 % ID/g
Biodistribution Femur ([1]; 60 min p.i.): 2.48 ± 0.48 % ID/g
Biodistribution Heart ([1]; 60 min p.i.): 0.81 ± 0.07 % ID/g
Biodistribution Intestine ([1]; 60 min p.i.): 9.8±1.6 % ID/g and 9.80 ± 1.61 % ID/g
Biodistribution Kidneys ([1]; 60 min p.i.): 9.21 ± 0.21 % ID/g
Biodistribution Liver ([1]; 60 min p.i.): 46.3±5.9 % ID/g and 46.3 ± 5.88 % ID/g
Biodistribution Lung ([1]; 60 min p.i.): 1.38 ± 0.11 % ID/g
Biodistribution Muscle ([1]; 60 min p.i.): 0.39 ± 0.00 % ID/g
Biodistribution Spleen ([1]; 60 min p.i.): 1.18 ± 0.20 % ID/g
Biodistribution Stomach ([1]; 60 min p.i.): 2.43 ± 1.45 % ID/g
